Molecular target: human GLP-1R (glucagon-like peptide-1 receptor) (human) (UniProt P43220)

Sequences of proteins named here, by UniProt entry; tags and fusion partners are left off. Residues count along the entry.
UniProt P43220, 24-463: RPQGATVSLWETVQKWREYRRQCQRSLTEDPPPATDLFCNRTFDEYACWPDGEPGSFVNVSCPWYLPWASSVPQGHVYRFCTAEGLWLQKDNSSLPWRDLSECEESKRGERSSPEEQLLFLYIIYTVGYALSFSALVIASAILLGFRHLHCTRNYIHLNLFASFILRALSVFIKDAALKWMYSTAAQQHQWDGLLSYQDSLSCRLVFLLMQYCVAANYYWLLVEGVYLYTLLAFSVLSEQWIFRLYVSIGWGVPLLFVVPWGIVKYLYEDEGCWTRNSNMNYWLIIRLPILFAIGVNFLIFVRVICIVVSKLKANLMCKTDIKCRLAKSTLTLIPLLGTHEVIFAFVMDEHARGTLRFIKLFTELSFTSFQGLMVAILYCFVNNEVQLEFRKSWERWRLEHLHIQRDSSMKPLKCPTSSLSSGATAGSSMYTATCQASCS

Native GLP-1 (glucagon-like peptide-1) (ligand)
EC50 of cAMP accumulation in CHO-K1 cells expressing human GLP-1R: 4.1 pM
